Assay results published in publication PMC5349769 (ACS chemical neuroscience, 2015).

Amino acid sequences for entries named in this document (tags omitted). Residues count along the entry.
UniProt Q63380, 1-617: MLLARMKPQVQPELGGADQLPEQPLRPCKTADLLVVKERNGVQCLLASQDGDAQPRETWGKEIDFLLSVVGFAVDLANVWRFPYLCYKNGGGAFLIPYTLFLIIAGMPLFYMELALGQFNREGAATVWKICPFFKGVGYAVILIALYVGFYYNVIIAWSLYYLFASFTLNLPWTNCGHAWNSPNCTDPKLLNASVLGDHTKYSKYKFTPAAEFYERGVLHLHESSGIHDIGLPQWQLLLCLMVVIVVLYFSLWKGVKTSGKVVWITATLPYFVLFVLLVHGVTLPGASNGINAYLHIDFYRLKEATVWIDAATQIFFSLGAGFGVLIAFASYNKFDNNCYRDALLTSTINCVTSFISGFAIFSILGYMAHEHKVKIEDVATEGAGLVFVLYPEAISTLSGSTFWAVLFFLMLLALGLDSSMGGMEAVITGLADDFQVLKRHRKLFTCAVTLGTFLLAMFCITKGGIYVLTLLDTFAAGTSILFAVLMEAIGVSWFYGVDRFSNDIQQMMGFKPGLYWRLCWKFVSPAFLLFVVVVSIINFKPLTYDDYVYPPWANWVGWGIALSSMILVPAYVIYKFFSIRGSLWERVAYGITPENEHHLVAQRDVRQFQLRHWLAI

Biological target: NET (Rattus norvegicus, UniProt Q63380)
Assay: Inhibition of [3H]norepinephrine reuptake at NET in rat brain synaptosomes
Format: biochemical

COC(=O)[C@H]1[C@@H](OC(=O)c2ccccc2)C[C@@H]2CC[C@H]1N2C [(−)cocaine, cocaine, reference compound]
IC50: 396 ± 47.8 nM
